Measured values as given in ChEMBL document CHEMBL4406909, “Synthesis and evaluation of 1,3,5-triazine derivatives as sunscreens useful to prevent skin cancer” (Bioorg Med Chem Lett, 2019).

Key:
Format in all cases: functional
[1] = Antioxidant activity assessed as DPPH free radical scavenging activity at 400 uM incubated for 60 mins by spectrophotometric method relative to control
[2] = Antioxidant activity assessed as DPPH free radical scavenging activity at 300 uM incubated for 60 mins by spectrophotometric method relative to control
[3] = Antioxidant activity assessed as DPPH free radical scavenging activity at 200 uM incubated for 60 mins by spectrophotometric method relative to control
[4] = Antioxidant activity assessed as DPPH free radical scavenging activity at 100 uM incubated for 60 mins by spectrophotometric method relative to control

O=C1O[C@H]([C@@H](O)CO)C(O)=C1O showed an Activity [1] of 82.1%, an Activity [2] of 81.7% and an Activity [3] of 81.5%. For the same compound, the Activity [4] was 77.8%.
